Data as given in US8278296B2, “Manipulation of brain CDP-diacylglycerol and uses thereof” (priority 2006, dated 2012).
“Also recorded” adds a separate entry of the source.

Test system: phosphoinositide-specific phospholipase C / PI metabolism
Test: Blockade of PI hydrolysis (neomycin, U73122) on antidepressant-induced CDP-DG, PI and IP responses in brain slices
Assay type: cell-based, rat
Settings: for inhibition of antidepressant-induced [3H]CDP-diacylglycerol production: 100 μM fluoxetine or 300 μM imipramine, desipramine, paroxetine, maprotiline, nomifensine
[1] = hippocampal or prefrontal cortical slices, maximally effective antidepressant concentrations

inhibition of antidepressant-induced [3H]CDP-diacylglycerol production (hippocampal or prefrontal cortical slices): complete blockade | inhibition of antidepressant-induced IP accumulation [1]: concentration-dependently blocked | inhibition of antidepressant-induced PI resynthesis [1]: complete blockade | effect of inhibitor alone on CDP-diacylglycerol (neomycin alone): not significant | effect of inhibitor alone on [3H]phosphatidylinositide levels (neomycin alone, 0.3 mM): slight, but significant, increase
Substance: neomycin
inhibition of antidepressant-induced [3H]CDP-diacylglycerol production (hippocampal or prefrontal cortical slices, listed as Neomycin): concentration-dependently blocked; also recorded: significantly and concentration-dependently inhibited | inhibition of antidepressant-induced PI resynthesis (hippocampal or prefrontal cortical slices, maximally effective antidepressant concentrations, listed as Neomycin): concentration-dependently blocked; also recorded: significantly and concentration-dependently inhibited
